Values quoted from earlier work in patent US20080090808A1, “Pharmaceutical compositions and methods for preventing, treating, or reversing neuronal dysfunction” (published 2008).
Read-outs that look alike come from different tables or passages of the source.

What was measured:
[1] = preclinical studies
[2] = tested on: AChE; settings: PB given less than 3 hours prior to soman exposure
[3] = target: NMDA receptor (Rattus norvegicus, UniProt P35439); settings: listed as (−)-huperzine A
[4] = tested on: ACh
[5] = tablet, oral
[6] = oral, rat

For `CN1[C@@H]2CC[C@H]1C[C@@H](OC(=O)C(CO)c1ccccc1)C2` (stereo partly drawn), the “effect on acute toxicity associated with huperzine A” value [1] is given as “reduced acute toxicity associated with huperzine A”.

For `CN(C)C(=O)Oc1ccc[n+](C)c1`, the AChE inhibition level [2] is given as “increased levels of ACHE inhibition”.

For “5,9-Methanocycloocta(b)pyridin-2(1H)-one, 5-amino-11-ethylidene-5,6,9,10-tetrahydro-7-methyl-, (5R,9R,11E)-”, the “NMDA receptor antagonism / block of NMDA calcium ion channel, enantiomers compared” value [3] is listed as “equal potency”, the “maximal ACh elevation in the brain” value ([4]; 30-60 minutes after i.m. 2 mg/kg) is listed as 40% and the “increase in ACh levels” value ([4]; 60 min after i.m. 2 mg/kg) is listed as “up to 40%”. For the same compound, the “elevation in ACh level in the brain” value ([4]; 6 hours after i.m. 2 mg/kg) was 12%, the “maximal ACh elevation” value ([4]; frontal cortex, i.m. 2 mg/kg) was 125% and the ACh increase ([4]; other brain regions, i.m. 2 mg/kg) was 22-65%. For the same compound, the “maximal ACh elevation” value ([4]; parietal cortex, i.m. 2 mg/kg) was 105%.

In the case of `C/C=C1\[C@H]2C=C(C)C[C@]1(N)c1ccc(=O)[nH]c1C2`, the “absorption half-life (T1/2Ka)” value [5] is listed as 12.6 min, the elimination half-life [5] is listed as “approximately 288.5 minutes” and the “time to peak plasma concentrations” value ([5]; average) is listed as “approximately 79.6 minutes”. For the same compound, the “time to peak plasma concentrations” value [6] was 10 to 30 min, the “patients showing side effects” value (1200 μg/day) was “approximately 50%” and the tolerability (daily oral doses of 300-400 μg) was “well tolerated with a low incidence of side effects”.
